# From PubChem BioAssay AID485346 (Sanford-Burnham Center for Chemical Genomics, 2010)
# Chains of the proteins cited; added tags and fusions are not shown.
# UniProt O15151, whole entry, looked up: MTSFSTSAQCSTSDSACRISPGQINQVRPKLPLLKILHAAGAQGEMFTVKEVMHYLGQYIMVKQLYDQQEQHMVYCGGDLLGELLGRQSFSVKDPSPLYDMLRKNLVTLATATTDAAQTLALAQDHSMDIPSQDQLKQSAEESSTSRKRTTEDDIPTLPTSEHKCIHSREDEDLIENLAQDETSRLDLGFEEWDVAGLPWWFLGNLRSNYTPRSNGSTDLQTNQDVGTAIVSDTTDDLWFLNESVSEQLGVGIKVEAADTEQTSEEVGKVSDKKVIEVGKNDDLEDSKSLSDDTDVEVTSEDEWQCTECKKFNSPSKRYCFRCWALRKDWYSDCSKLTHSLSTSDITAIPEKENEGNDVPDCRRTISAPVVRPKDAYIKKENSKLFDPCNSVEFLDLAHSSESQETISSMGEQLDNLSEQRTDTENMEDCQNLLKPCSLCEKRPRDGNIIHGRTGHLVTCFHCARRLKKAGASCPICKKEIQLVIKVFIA
# UniProt Q00987, whole entry, looked up: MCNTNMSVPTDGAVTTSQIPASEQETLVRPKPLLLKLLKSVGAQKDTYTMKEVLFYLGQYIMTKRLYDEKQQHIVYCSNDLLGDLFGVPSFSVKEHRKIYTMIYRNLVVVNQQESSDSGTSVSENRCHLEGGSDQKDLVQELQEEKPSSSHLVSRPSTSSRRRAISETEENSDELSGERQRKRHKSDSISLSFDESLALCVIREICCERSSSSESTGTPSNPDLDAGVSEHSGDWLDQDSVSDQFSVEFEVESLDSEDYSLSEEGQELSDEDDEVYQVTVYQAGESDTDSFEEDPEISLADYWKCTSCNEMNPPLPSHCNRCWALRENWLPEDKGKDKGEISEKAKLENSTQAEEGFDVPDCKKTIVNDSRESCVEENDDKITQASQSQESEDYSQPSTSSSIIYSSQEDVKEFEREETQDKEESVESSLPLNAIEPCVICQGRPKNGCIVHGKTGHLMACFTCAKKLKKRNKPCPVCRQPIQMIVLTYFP
# The entries are a selection whose mix differs from that of the whole data set. The source made the active and inactive calls.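 The calls were made as follows: active = inhibition of at least 50% at 8 µM in the primary screen; inactive = the rest.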
# Target: Protein Mdm4 (Homo sapiens) + E3 ubiquitin-protein ligase Mdm2 (Homo sapiens) (UniProt O15151+Q00987)
# Assay: disruptors of Mdm2/MdmX RING complex – cell-based, luminescence, split luciferase, SaOS-2, uHTS, primary screen (AID 485346)
# Conditions: SaOS-2 split-luciferase Mdm2/MdmX complementation, at 8 µM, active compounds read high
row,SMILES,inhibition
1,CN1CCCCC1COC(=O)C1(O)c2ccccc2CCc2ccccc21 (stereo unspecified),inactive: 14.3%
